# Screens: PubChem, Broad Institute
# MITF TRPM1 HTS: activators of MITF-driven TRPM1 promoter activity in SK-MEL-5 cells; SK-MEL-5 TRPM1-promoter luciferase, 24 h; % of positive control, neutral wells = 0; activation, % at 12.5 µM; actives 0.75% (n = 300,000);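 active means mean activation of at least 80% with every replicate also reaching 80%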;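 further: 0% = neutral control wells and 100% = parthenolide positive control wells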
# miR-122 sensor: inhibitors of miR-122 in Huh7 cells; Huh7 miR-122 Renilla luciferase sensor, 48 h; neutral wells = 0, positive control = 100; activation (reporter increase), % at 12.5 µM; actives 0.3% (n = 340,000); AID 602342;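 active means mean replicate activation score at least 90 and every replicate individually at or above 90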;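 further: higher luciferase means less miR-122 activity so hits act as miR-122 inhibitors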
# PGC1a acetyl inh: lowers PGC1a acetylation signal in U2OS cells. AlphaScreen anti-acetyl-lysine; with virally co-expressed GCN5 acetyltransferase. inhibition, % at 15.6 µM. actives 0.17% (n = 350,000);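 active means every replicate shows inhibition of at least 40%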;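 further: 0% = neutral control wells and 100% = positive control wells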
# Wnt act: Wnt/beta-catenin pathway activation; AID 743398; activation, % at 9.35 µM; Wnt/beta-catenin reporter cell assay, activator, plate reader; actives 1.2% (n = 300,000); in the data active means activation above about 30%, passing the limit was not always enough;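 further: 0% = neutral control wells and 100% = positive control wells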
# Yeast UUG start: alters start codon recognition fidelity in yeast; S. cerevisiae UUG-firefly luciferase reporter, luminescence/redox ratio; activity score, % at 18.7 µM; actives 0.13% (n = 350,000); AID 602363;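 active = replicate mean at a twofold rise or more, about +100% in these data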;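 also: firefly luciferase made from a UUG start codon reports start codon fidelity; reporter light over untreated wells divided by growth signal over untreated wells; some hits fall short of that in this replicate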
# MITF TRPM1 inh: inhibitors of MITF-driven TRPM1 promoter in melanoma cells | SK-MEL-5 TRPM1 promoter luciferase, 24 h | inhibition, % at 12.5 µM | actives 0.83% (n = 330,000) | AID 488899;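 active means mean inhibition across replicates of 60% or more, whatever share of single replicates reaches that level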
# Numbers without * were called inactive; . = no result given; [ ] = another dose, or the depositor's remark. Shown are actives, neighbours in structure and some others; about 2.1% of the full set was active somewhere.
# Letters: A = MITF TRPM1 HTS; B = miR-122 sensor; C = PGC1a acetyl inh; D = Wnt act; E = Yeast UUG start; F = MITF TRPM1 inh
(1) O=C(NC1CCCCC1)[C@H]1[C@H](CO)[C@H]2Cn3c(cccc3=O)[C@H]2N1CC1CCCC1
  A: . | B: . | C: 8 | D: . | E: . | F: .
(2) CCOc1ccc(-n2c(-c3ccccc3)c[n+]3c2CCC3)cc1
  A: -37 | B: . | C: -9 | D: -1 | E: . | F: 33
(3) CCOc1ccc(-n2c(-c3ccc(OC)cc3)c[n+]3c2CCCCC3)cc1
  A: -74 | B: . | C: . | D: 1 | E: . | F: 77*
(4) CCOc1ccc(-n2c(-c3ccc(Br)cc3)c[n+]3c2CCCCC3)cc1
  A: -61 | B: . | C: -10 | D: -3 | E: . | F: 63*
(5) CCN1[C@@H]2Cn3c(ccc(-c4cccc(F)c4)c3=O)[C@H]1[C@@H](C(=O)N(C)C)[C@@H]2CO
  A: . | B: -4[16.7 µM] | C: . | D: . | E: . | F: .
(6) CCc1ccc(NC(=O)c2nc(S(=O)(=O)Cc3ccccc3)ncc2Cl)cc1
  A: -93 | B: 20 | C: . | D: -5 | E: -12 | F: 92*
(7) CC1CCN(S(=O)(=O)c2ccc(NC(=O)c3ccncc3)cc2)CC1
  A: -21 | B: 7 | C: 5 | D: -2 | E: -23 | F: 23
(8) Cc1ccc(NC(=O)c2nc(S(=O)(=O)Cc3ccccc3C)ncc2Cl)cc1C
  A: -79 | B: 15 | C: . | D: -11 | E: -16 | F: 78*
(9) CCS(=O)(=O)c1ncc(Cl)c(C(=O)Nc2ccc(S(=O)(=O)N3CCC(C)CC3)cc2)n1
  A: -96 | B: 11 | C: . | D: -19 | E: -1 | F: 97*
(10) CCOC(=O)c1ccc(NC(=O)CCS(=O)(=O)Cc2ccccc2)cc1
  A: 9 | B: . | C: 1 | D: -1 | E: -11 | F: -6
(11) CSc1ncc(Cl)c(C(=O)Nc2ccc(C)c(C)c2)n1
  A: 5 | B: -1 | C: -2 | D: 0 | E: -15 | F: -1
(12) CCOC(=O)c1ccc(NC(=O)c2nc(S(=O)(=O)Cc3ccccc3)ncc2Cl)cc1
  A: -78 | B: -1 | C: -78 | D: -9 | E: 17 | F: 78*
(13) COC(=O)c1ccc(NC(=O)c2nc(S(=O)(=O)Cc3cccc(C)c3)ncc2Cl)cc1
  A: -94 | B: 4 | C: . | D: -13 | E: -9 | F: 94*
(14) CC(=O)Nc1ccc(NC(=O)c2nc(S(=O)(=O)Cc3cccc(C)c3)ncc2Cl)cc1
  A: -48 | B: . | C: . | D: -14 | E: -19 | F: 49
(15) CN(c1ccccc1)S(=O)(=O)c1ccc(NC(=O)c2ccccc2)cc1
  A: 19 | B: . | C: . | D: . | E: . | F: -18
(16) CN(c1ccccc1)S(=O)(=O)c1ccc(NC(=O)c2nc(S(C)(=O)=O)ncc2Cl)cc1
  A: -100 | B: 11 | C: . | D: -14 | E: -8 | F: 100*
(17) CSc1ccccc1NC(=O)COc1ccc2c(c1)OCO2
  A: 61 | B: . | C: . | D: 5 | E: 10 | F: -57
(18) NC(=O)c1ccccc1NC(=O)c1ccc2ccccc2c1
  A: 57 | B: 0 | C: -5 | D: 21 | E: -14 | F: -50
(19) NC(=O)c1ccccc1NC(=O)COc1ccc2c(c1)OCO2
  A: 132* | B: -9 | C: . | D: 25 | E: . | F: -122
(20) NC(=O)c1ccccc1NC(=O)c1ccc2c(c1)OCO2
  A: . | B: . | C: . | D: 42* | E: -24 | F: -29

# Structures above shown as hits in Wnt act:
# Letters: A = MITF TRPM1 HTS; B = miR-122 sensor; C = PGC1a acetyl inh; D = Wnt act; E = Yeast UUG start; F = MITF TRPM1 inh
(20) NC(=O)c1ccccc1NC(=O)c1ccc2c(c1)OCO2
  A: . | B: . | C: . | D: 42* | E: -24 | F: -29

# An excerpt from above in order of their number in Wnt act, ascending.
cpd	canonical_smiles	MITF TRPM1 HTS	miR-122 sensor	PGC1a acetyl inh	Wnt act	Yeast UUG start	MITF TRPM1 inh
13	COC(=O)c1ccc(NC(=O)c2nc(S(=O)(=O)Cc3cccc(C)c3)ncc2Cl)cc1	-94	4	.	-13	-9	94*
12	CCOC(=O)c1ccc(NC(=O)c2nc(S(=O)(=O)Cc3ccccc3)ncc2Cl)cc1	-78	-1	-78	-9	17	78*
11	CSc1ncc(Cl)c(C(=O)Nc2ccc(C)c(C)c2)n1	5	-1	-2	0	-15	-1

# Other entries.
# Letters: A = MITF TRPM1 HTS; B = miR-122 sensor; C = PGC1a acetyl inh; D = Wnt act; E = Yeast UUG start; F = MITF TRPM1 inh
(21) O=C(NNC(=S)NC1CCCCC1)c1ccc2c(c1)OCO2
  A: 17 | B: 106* | C: . | D: 7 | E: 1 | F: -17
(22) O=C(NC1CCCCCCC1)c1ccc2c(c1)OCO2
  A: 42 | B: 2 | C: -14 | D: 24 | E: -27 | F: -41
(23) O=c1nc(/C=C/c2ccc(O)c(O)c2)oc2ccccc12
  A: 82* | B: -11 | C: 4 | D: . | E: -21 | F: -71
(24) COc1ccc(/C=C\c2nc(=O)c3ccccc3o2)cc1
  A: 2 | B: 0 | C: -11 | D: 5 | E: 1 | F: -1
(25) CC(=O)CSc1ccc(-c2nc3ccccc3[nH]2)cn1
  A: 3 | B: . | C: . | D: 0 | E: -25 | F: -2
(26) CCc1nnc(NC(=O)CSc2ccc(-c3nc4ccc(C)cc4[nH]3)cn2)s1
  A: -15 | B: 6 | C: 4 | D: . | E: -2 | F: 20
(27) CC(=O)CSc1ccc(-c2nc3cc(C)c(C)cc3[nH]2)cn1
  A: -82 | B: . | C: . | D: -6 | E: . | F: 83*
(28) Cc1cc2nc(-c3ccc(SCC(=O)Nc4nccs4)nc3)[nH]c2cc1C
  A: -71 | B: 0 | C: 0 | D: . | E: -5 | F: 74*
(29) C=CC[C@]1(C(=O)OC)N=C(c2ccc(OCCCO)cc2)O[C@H]1c1ccccc1
  A: . | B: . | C: . | D: . | E: 14 | F: .
(30) COc1ccc(/C=C/C(=O)c2ccccc2O)cc1
  A: 141* | B: -9 | C: . | D: . | E: -10 | F: -128
(31) COc1ccc(/C=C/C(=O)c2ccccn2)cc1
  A: 38 | B: . | C: 4 | D: 75* | E: . | F: -42
(32) COc1ccc(/C=C/C(=O)c2ccc(O)cc2)cc1
  A: 47 | B: -5 | C: 3 | D: 1 | E: 3 | F: -42
(33) COc1ccccc1-c1cnc2c(c1)C(=O)N([C@H](C)CO)C[C@H](C)[C@H](CN(C)C(C)=O)O2
  A: . | B: 15[16.7 µM] | C: 9 | D: . | E: -3 | F: .
(34) C[C@H]1CN([C@@H](C)CO)C(=O)c2cc(C3=CCCC3)cnc2O[C@@H]1CN(C)Cc1cccc(F)c1
  A: . | B: 2[16.7 µM] | C: -26 | D: . | E: 25 | F: .
